Results: ChEMBL document CHEMBL1153968, “Discovery of 5-pyrrolopyridinyl-2-thiophenecarboxamides as potent AKT kinase inhibitors” (Bioorg Med Chem Lett, 2009)

The chains behind the UniProt entries cited, without tags or fusion partners.
UniProt Q16539, whole entry: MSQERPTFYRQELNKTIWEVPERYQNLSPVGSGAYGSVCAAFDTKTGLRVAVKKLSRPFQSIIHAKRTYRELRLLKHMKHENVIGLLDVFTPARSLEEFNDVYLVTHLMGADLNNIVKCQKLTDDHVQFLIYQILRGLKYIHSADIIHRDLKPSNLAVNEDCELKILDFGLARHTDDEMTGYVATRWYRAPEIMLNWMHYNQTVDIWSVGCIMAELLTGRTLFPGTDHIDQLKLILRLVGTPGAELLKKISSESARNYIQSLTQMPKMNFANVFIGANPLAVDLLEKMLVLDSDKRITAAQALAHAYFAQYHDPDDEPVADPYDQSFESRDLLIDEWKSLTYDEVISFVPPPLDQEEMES

Biological target: Mitogen-activated protein kinase 14 (Homo sapiens, UniProt Q16539)
Experiment: Inhibition of P38alpha

IC50: 25 µM
SMILES: NC[C@H](Cc1cccc(F)c1)NC(=O)c1cc(Br)c(-c2ccnc3[nH]ccc23)s1
